One may read the EC50 as the midpoint of the concentration-response curve. Read a low EC50 as greater potency.

Our source for the EC50 values is US12061202B2, “Compositions and methods for bioluminescent detection using multifunctional probes” (Promega Corporation, priority 2019, dated 2024).

The assay relates to SKBR3 cells. Description: Antibody dependent cellular cytotoxicity (ADCC), labeled SKBR3 cells co-cultured with PBMC. It counts as cell-based. To be noted: SKBR3 labeled with 10 μM Labeling Probe; PBMC E:T 20:1; 5 hours at 37° C. Here is the method: As shown in FIGS. 3A-3C, experiments were conducted to test antibody dependent cellular cytotoxicity (ADCC) in Daudi (FIGS. 3A-3B) and SKBR3 (FIG. 3C) cells labeled with the bifunctional probes of the present disclosure. Daudi and SKBR3 cells were labeled with 1 μM and 10 μM Labeling Probe respectively and co-cultured with peripheral blood mononuclear cells (PBMC; Cellular Technologies Limited) at an E:T ratio of 20:1 (100,000 effector to 5,000 target) with indicated antibody titrations for 5 hours at 37° C. prior to Nano-Glo® Luciferase Assay Substrate addition. […] Curves in FIGS. 3B and 3C were generated following assay background subtraction (RLU [Target cells+Effector cells+Detection Components]−RLU [Media+Detection Components]) using a four parametric variable slope algorithm in Prism.

In turn, “Herceptin: antibody titrated in ADCC assay on SKBR3 cells” gave an EC50 of 0.11 µg/mL.
